Measured values as given in patent publication US8815935B2, “Inhibitors of protein prenyltransferases” (The Regents of the University of California, priority 2008, dated 2014).
pIC50: −log10 of the molar value. Blank lines part the entries; values can stand above or below the molecule they belong to.

Chains of the proteins cited; added tags and fusions are not shown.
UniProt Q08602, whole entry: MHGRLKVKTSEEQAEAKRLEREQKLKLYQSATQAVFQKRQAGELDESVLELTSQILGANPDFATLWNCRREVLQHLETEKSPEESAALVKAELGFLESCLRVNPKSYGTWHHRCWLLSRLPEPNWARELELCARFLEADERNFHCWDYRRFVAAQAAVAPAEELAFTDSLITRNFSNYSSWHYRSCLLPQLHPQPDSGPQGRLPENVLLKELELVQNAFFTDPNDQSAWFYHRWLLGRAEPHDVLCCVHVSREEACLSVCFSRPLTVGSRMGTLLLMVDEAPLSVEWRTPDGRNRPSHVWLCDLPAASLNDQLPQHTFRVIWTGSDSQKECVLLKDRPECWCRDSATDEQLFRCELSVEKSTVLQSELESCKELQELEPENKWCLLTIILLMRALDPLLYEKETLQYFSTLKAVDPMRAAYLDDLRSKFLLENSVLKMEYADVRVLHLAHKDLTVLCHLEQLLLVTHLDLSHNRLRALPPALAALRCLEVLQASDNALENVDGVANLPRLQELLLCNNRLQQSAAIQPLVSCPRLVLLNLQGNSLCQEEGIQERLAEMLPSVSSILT
UniProt Q08603, whole entry: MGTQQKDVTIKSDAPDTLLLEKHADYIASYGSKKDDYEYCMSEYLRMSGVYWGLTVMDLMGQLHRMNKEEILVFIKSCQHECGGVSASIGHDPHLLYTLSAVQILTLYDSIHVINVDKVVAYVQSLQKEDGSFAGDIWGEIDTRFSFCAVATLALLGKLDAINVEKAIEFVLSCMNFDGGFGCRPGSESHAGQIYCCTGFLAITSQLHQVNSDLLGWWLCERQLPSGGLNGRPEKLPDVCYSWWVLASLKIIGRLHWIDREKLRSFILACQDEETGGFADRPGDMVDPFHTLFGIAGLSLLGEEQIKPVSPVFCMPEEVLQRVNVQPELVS
UniProt P53610, whole entry: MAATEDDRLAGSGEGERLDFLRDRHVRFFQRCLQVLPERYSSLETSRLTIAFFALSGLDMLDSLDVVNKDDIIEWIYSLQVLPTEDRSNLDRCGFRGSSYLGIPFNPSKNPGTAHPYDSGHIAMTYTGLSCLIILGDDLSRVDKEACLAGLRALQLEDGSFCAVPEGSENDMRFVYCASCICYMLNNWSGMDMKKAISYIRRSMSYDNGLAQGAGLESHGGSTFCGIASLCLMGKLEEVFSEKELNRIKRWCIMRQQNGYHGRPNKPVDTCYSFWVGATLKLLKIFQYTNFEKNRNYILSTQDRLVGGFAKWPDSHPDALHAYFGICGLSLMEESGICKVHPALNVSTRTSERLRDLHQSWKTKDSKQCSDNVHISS
UniProt Q02293, whole entry: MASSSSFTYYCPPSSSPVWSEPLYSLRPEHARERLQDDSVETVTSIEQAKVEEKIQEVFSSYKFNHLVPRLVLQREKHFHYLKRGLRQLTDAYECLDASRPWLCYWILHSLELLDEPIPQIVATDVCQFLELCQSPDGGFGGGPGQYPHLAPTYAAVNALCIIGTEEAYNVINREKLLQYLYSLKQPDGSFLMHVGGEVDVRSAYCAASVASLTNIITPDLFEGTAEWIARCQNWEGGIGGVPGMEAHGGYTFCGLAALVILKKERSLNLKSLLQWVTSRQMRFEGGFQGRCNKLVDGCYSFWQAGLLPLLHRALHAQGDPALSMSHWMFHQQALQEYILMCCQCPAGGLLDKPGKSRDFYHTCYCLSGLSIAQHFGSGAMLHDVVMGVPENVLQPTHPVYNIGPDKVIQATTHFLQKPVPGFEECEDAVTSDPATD

Columns and labels:
[1] = test system: Rap1 geranylgeranylation in NIH3T3 cells; test: Unprenylated Rap1 immunoblot in NIH3T3 cells; details: 48 hours
Description: The inhibition of GGTase-I catalyzed protein geranylgeranylation was assessed by examining the accumulation of unprenylated Rap1. To measure the level of unprenylated Rap1, cells were cultured in DMEM plus 10% (v/v) FBS overnight, and then DMSO or appropriate inhibitors were added. Incubation was continued for 48 hours. The cells were harvested and lysed in lysis buffer (20 mM Tris-HCl, pH 7.5, 150 mM NaCl, 1 mM EDTA, 1% NP-40 and 1× Protease Inhibitor Cocktail). Whole cell lysates of NIH3T3 cells were electrophoresed on a 12% SDS-PAGE, transferred to nitrocellulose membranes and immunoblotted with the antibody against unprenylated form of Rap1 (Santa Cruz Biotechnology catalog number sc-1482, goat), total-Rap1 (Santa Cruz: sc-65) or actin (Sigma: A4700). Actin was used as a loading control.

[2] = test system: Rab5b geranylgeranylation in NIH3T3 cells; test: Rab5b immunoblot and subcellular fractionation in NIH3T3 cells; details: 48 hours
Description: The inhibition of Rab geranylgeranylation in cells (FIG. 43) was examined according to (29). Briefly, whole cell lysates were subjected to 15% SDS-PAGE containing 4M urea followed by immunoblotting with the antibody against Rab5b (Santa Cruz: sc-598) or actin. Subcellular fractionations (FIG. 44) were performed as described by Gomes et al. (30). Briefly, cells were treated with P49-F6 for 48 hours. After osmotic lysis, cell debris were removed by centrifugation at 500×g for 10 min, and the supernatant was subjected to ultracentrifugation at 100,000×g for 60 min. The supernatant of ultracentrifugation was collected as a soluble fraction. The pellet was collected as a membrane fraction. These fractions were subjected to electrophoresis on 10% SDS-PAGE gels followed by immunoblotting with the antibody against Rab5b. RhoGDI (Santa Cruz: sc-360) and Na^+/K^+ ATPase (Sigma: A276) were used as markers for soluble and membrane fractions, respectively.

RabGGTase = RabGGTase (Rattus norvegicus, UniProt Q08602+Q08603); test: In vitro RabGGTase (GGTase-II) assay with REP-1; details: varying GGPP
Description: (§1) The GGTase-I assay was carried out using RhoA as a substrate protein, GGTase-I (JENA Bioscience) and [3H]geranylgeranyl pyrophosphate. Incubation was for 30 min at 37° C. GGTase-II (or RabGGTase) assay was carried out using YPTI as a substrate protein, GGTase-II (Calbiochem, San Diego, Calif.) plus REP1 (Calbiochem) and [3H]geranylgeranyl pyrophosphate. Incubation was for 30 min at 37° C. FIGS. 20D-20F show the three dimensional structure of GGTase I (D), FTsse (E) and GGTase II (F) which can be obtained from X-ray diffraction studies of protein crystals.
For RabGGTase assays, the reaction contained the following components in 20 μl; 0.625 μl of [^3H]-GGPP (0.7 μM), 25 nM RabGGTase, 0.6 μM REP-1, 0.6 μM purified Rab7 or Ypt1 protein, 40 mM HEPES (pH 7.5), 150 mM NaCl, 5 mM DTT, 3 mM MgCl2 and 0.3% CHAPS. Reactions were carried out for 20 min at 37° C. and the products were analyzed as described above for the GGTase-I reaction. Graphing and Michaelis-Menten analysis were performed using Prism version5 (GraphPad, San Diego Calif.).

[3] = test system: H-Ras farnesylation in NIH3T3 cells; test: H-Ras mobility shift immunoblot in NIH3T3 cells; details: 48 hours
Description: K562 cells were treated with modified compounds for 72 hours and then cell number was counted. IC50 values of cell viability relative to the DMSO were measured. […] Data represent the mean+/−S.D. of two measurements from two independent experiments. *, P<0.05 compared with the value for DMSO. […] Whole cell lysates from cells treated with DMSO, P5-H6, P61-A6, GGTI (GGTI-298), FTI (BMS-225975) or RabGGTI (P49-F6) for 48 hours were prepared and processed for immunoblot analysis using antibody against unprenylated form of Rap1 (C: upper panel), Total-Rap1 (C: middle panel), H-Ras (D: upper panel), Rab5b (E: upper panel) or actin (C, D, and E: lower panel). The immunoblots shown represent two independent experiments for each treatment.
This was examined by using a farnesylated protein H-Ras.

GGTase-I = GGTase-I (Rattus norvegicus, UniProt P53610+Q04631); test: In vitro GGTase-I enzyme assay (IC50, kinetics); details: read-out: In vitro (enzyme assay) IC50, GGTase I; Tables 5, 14
Description: as §1
GGTase-I and FTase activities were determined by following the incorporation of radiolabeled isoprenoid [^3H]-geranylgeranyl or [^3H]-farnesyl into substrate proteins. FTase or GGTase-I (50 nM) were used to initiate reactions containing 0.4 μM of [^3H]-FPP or 0.5 μM of [^3H]-GGPP and 2 μM of MBP-tagged substrates (K-Ras4B for FTase; RhoA for GGTase-I) in 20 μl of buffer {50 mM Tris-HCl (pH 7.5), 10 mM MgCl2, […] and 5 mM DTT}. Inhibitors were added at the indicated concentrations. The final DMSO concentration was 2.5% for all samples.
Reactions were carried out for 10 min at 30° C. The reaction mixture was spotted onto a filter paper, treated with 10% trichloroacetic acid (TCA) followed by ethanol and acetone washing. The filter was counted using a scintillation counter. […]

FTase = FTase (Rattus norvegicus, UniProt Q02293+Q04631); test: In vitro FTase assay (K-Ras4B substrate, [3H]FPP); details: P3-D9, P3-E5: concentration increased to 100 (unit not given)
Text: To further characterize the pilot library, inhibitors of protein farnesyltransferase were identified. This was accomplished by using K-Ras4B as a substrate protein, tritiated farnesylpyrophosphate ([^3H]FPP) and protein farnesyltransferase. See Finegold, A. A., Johnson, D. I., Farnsworth, C. C., Gelb, M. H., Judd, S. R., Glomset, J. A. and Tamanoi, F. (1991) Protein geranylgeranyltransferase of Saccharomyces cerevisiae is specific for Cys-Xaa-Xaa-Leu motif and requires the CDC43 gene product but not the DPR1 gene product. Proc. Natl. Acad. Sci. USA 88, 4448-4452. […] On the other hand, the structure of the compounds P1-F11, P2-B7 and P2-E9 resemble those of GGTIs. The FTI P1-F11 resembles the GGTI P1-F10, while the FTI P2-B7 resembles the GGTI P2-C10. The FTI P2-E9 is similar to the GGTI P2-G3. Similarity of some GGTI and FTI compounds may point to common structural features between the two closely related enzymes. As described before, FTase and GGTase I have similar three-dimensional structures and a shared alpha subunit. […]
GGTase-I and FTase activities were determined by following the incorporation of radiolabeled isoprenoid [^3H]-geranylgeranyl or [^3H]-farnesyl into substrate proteins. […]
Reactions were carried out for 10 min at 30° C. […] The filter was counted using a scintillation counter. […]

- mode of RabGGTase inhibition with respect to GGPP (RabGGTase): uncompetitive inhibitors
SMILES: CCCCCCS[C@@H]1[C@H](C(=O)O)[C@@H](c2ccc(Br)cc2)N(S(=O)(=O)c2ccc(C)cc2)[C@H]1CCC (relative stereo)
- appearance of the unprenylated (unprocessed) Rap1 band [1]: did not induce appearance of unprenylated Rap1
- intracellular localization of Rab5b (soluble vs membrane fraction) [2]: increase of Rab5b protein in the soluble fraction
- mobility shift of H-Ras (protein farnesylation) [3]: did not cause mobility shift

- pIC50 (GGTase-I): 7.40
SMILES: CC(C)C[C@H](NC(=O)C1=CC[C@@H](c2cccc(Cl)c2)N(S(=O)(=O)c2ccc(Br)cc2)[C@H]1c1cccc(Br)c1)C(=O)O

- inhibition of FTase activity (FIG. 16) (FTase): no inhibition of FTase activity
SMILES: O=C(O)C1=CCC(c2ccc(Cl)cc2)N(S(=O)(=O)c2ccc(Cl)cc2)C1c1cccc(Cl)c1 (stereo not drawn)
